Measured values reported in ChEMBL document CHEMBL6096732 (J Med Chem, 2025).

Target: T1, Polyamine deacetylase HDAC10 (Homo sapiens, UniProt Q969S8)
T1 sequence (Q969S8 whole entry): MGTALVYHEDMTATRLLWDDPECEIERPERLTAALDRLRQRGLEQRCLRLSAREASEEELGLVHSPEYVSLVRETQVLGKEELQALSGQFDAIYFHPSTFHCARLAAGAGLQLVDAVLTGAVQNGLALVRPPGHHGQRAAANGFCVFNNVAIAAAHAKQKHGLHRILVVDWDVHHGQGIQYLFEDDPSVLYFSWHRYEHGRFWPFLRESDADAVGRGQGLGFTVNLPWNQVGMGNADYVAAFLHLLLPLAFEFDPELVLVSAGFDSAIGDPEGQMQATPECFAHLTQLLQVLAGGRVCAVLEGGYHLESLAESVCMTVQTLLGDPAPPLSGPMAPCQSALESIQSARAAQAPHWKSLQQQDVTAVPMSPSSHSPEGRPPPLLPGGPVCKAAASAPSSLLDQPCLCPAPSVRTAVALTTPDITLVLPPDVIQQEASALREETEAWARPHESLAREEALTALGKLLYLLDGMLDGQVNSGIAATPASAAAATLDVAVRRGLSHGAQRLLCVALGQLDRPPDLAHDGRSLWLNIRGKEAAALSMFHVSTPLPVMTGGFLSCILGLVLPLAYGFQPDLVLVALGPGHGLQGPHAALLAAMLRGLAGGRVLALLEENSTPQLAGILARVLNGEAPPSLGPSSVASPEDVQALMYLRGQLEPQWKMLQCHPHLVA
Experiment: Inhibition of recombinant HDAC10 (unknown origin) preincubated for 1 hr followed by substrate addition and measured after 2 hrs by fluorescence based micro plate reader analysis

## O=C(CCCCCCC(=O)Nc1ccccc1)NO [VORINOSTAT]
  pIC50: < 5.00

pIC50: −log10 of the molar value.
